In article PMC9649962, “Early diagnosis of bladder cancer by photoacoustic imaging of tumor-targeted gold nanorods” (Photoacoustics, 2022):

Legend:
MB49-Luc cells = assay: Cell adhesion to HSA conjugate-coated plates, MB49-Luc; assay type: cell-based, murine; details: 30 µg/ml in images, 1–2 h, 37 °C, crystal violet, n = 4
Procedure: (§1) 96-well PVC microtiter plates were coated with Iso4-HSA or GNRs@Chit-Iso4 in 50 mM sodium phosphate, pH 7.3, containing 150 mM sodium chloride, (overnight incubation at 4 °C). The plates were washed and blocked with 2% BSA in DMEM or RPMI-1640 (200 μl/well, 1 h). MB49-Luc and 5637 cells were detached with DPBS-E, washed twice with DPBS, and suspended in DMEM or RPMI-1640 containing 0.1% BSA (binding buffer-3), and added to the coated-plates (1.5 ×10^5 cells/well, 100 μl). After 1–2 h of incubation at 37 °C, 5% CO2, the plates were washed with binding buffer-3. Adherent cells were fixed and stained with 0.5% crystal violet in 20% methanol. After washing with water, the dye was extracted from cells using a 10% acetic acid solution (140 μl/well) and the absorbance at 570 nm was measured using a microplate reader. The effect of urine on the pro-adhesive properties of GNRs@Chit-Iso4 was investigated as described above, except that the cells were seeded in binding buffer-3 or binding buffer-1 and various amounts of human urine (obtained from a healthy volunteer).

5637 cells = assay: Cell adhesion to HSA conjugate-coated plates, 5637; assay type: cell-based, human; details: 30 µg/ml in images, 1–2 h, 37 °C, crystal violet, n = 4
Procedure: as §1

Substance: *HSA: HSA activated with sulfo-SMCC and quenched with β-mercaptoethanol instead of Iso4
- cell adhesion (MB49-Luc cells): but not the activated HSA lacking the peptide (*HSA), promoted and supported cell adhesion
- cell adhesion (5637 cells): but not the activated HSA lacking the peptide (*HSA), promoted and supported cell adhesion
